Source: patent US11292791B2 (priority 2017, dated 2022)

Molecular target: BRD4 (Homo sapiens (Human), UniProt O60885)
Experiment: biochemical
Conditions: BRD4 IC50 (μM gmean)

| SMILES | IC50 [µM] |
| --- | --- |
| COC(=O)N1c2ccc3c(nc([C@H](C)Cc4ccccc4)n3[C@H]3CC[C@H](C(=O)O)CC3)c2CC[C@@H]1C [Example 60, trans-4-[(7S)-6-(methoxycarbonyl)-7-methyl-2-[(2R)-1-phenylpropan-2-yl]-3H,6H,7H,8H,9H-imidazo[4,5-f]quinolin-3-yl]cyclohexane-1-carboxylic acid] | 1 to 1000 |
| COC(=O)N1c2ccc3c(nc(C(O)c4ccc(OC)cc4Cl)n3C3CCCC(C(=O)O)C3)c2CC[C@@H]1C (stereo partly shown) [Example 430] | 0.1 to 1 |
| COC(=O)N1c2ccc3c(nc(N(C)c4ccccc4OC)n3[C@@H]3CCC[C@@H](C(=O)O)C3)c2CC[C@@H]1C [Example 689] | 0.1 to 1 |
| COC(=O)N1c2ccc3c(nc(C(C)C(=O)N4CCCCC4)n3C3CCCC(C(=O)O)C3)c2CC[C@@H]1C (stereo partly shown) [Example 623] | 0.1 to 1 |
| COC(=O)N1c2ccc3c(nc(C4(n5ncc6ccccc65)CC4)n3[C@H]3CC[C@H](C(=O)O)CC3)c2CC[C@@H]1C [Example 450] | 0.1 to 1 |
| COC(=O)N1c2ccc3c(nc(CN4c5ccccc5CS4(=O)=O)n3[C@@H]3CCC[C@@H](C(=O)O)C3)c2CC[C@@H]1C [Example 739] | 0.1 to 1 |
| COC(=O)N1c2ccc3c(nc(C4(n5cc6ccccc6n5)CC4)n3[C@H]3CC[C@H](C(=O)O)CC3)c2CC[C@@H]1C [Example 487] | 0.1 to 1 |
| COC(=O)N1c2ccc3c(nc(C(=O)c4ccccc4)n3[C@@H]3CCC[C@@H](C(=O)O)C3)c2CC[C@@H]1C [Example 874] | 0.1 to 1 |
| COC(=O)N1c2ccc3c(nc(C(O)c4cc(F)cc(OC)c4)n3C3CCCC(C(=O)O)C3)c2CC[C@@H]1C (stereo partly shown) [Example 417] | 0.1 to 1 |
| COC(=O)N1c2ccc3c(nc(C(C)Oc4ccccc4)n3C3CCCC(C(=O)O)C3)c2CC[C@@H]1C (stereo partly shown) [Example 496] | 0.1 to 1 |
| COC(=O)N1c2ccc3c(nc(CCn4cccn4)n3CCNCc3ccn(C)n3)c2CC[C@@H]1C [Example 290, methyl (S)-2-(2-(1H-pyrazol-1-yl)ethyl)-7-methyl-3-(2-(((1-methyl-1H-pyrazol-3-yl)methyl)amino)ethyl)-3,7,8,9-tetrahydro-6H-imidazo[4,5-f]quinoline-6-carboxylate] | 1 to 1000 |
| COC(=O)N1c2ccc3c(nc(Nc4ccc(F)c(OC)c4)n3[C@H]3CC[C@H](C(=O)O)CC3)c2CC[C@@H]1C [Example 899] | 0.1 to 1 |
| COC(=O)N1c2ccc3c(nc(N(C)Cc4ccccc4)n3[C@@H]3CCC[C@@H](C(=O)O)C3)c2CC[C@@H]1C [Example 571] | 0.1 to 1 |
| COC(=O)N1c2ccc3c(nc(C(O)c4ccc(Cl)cc4)n3C3CCCC(C(=O)O)C3)c2CC[C@@H]1C (stereo partly drawn) [Example 501, (1R,3R)-3-[(7S)-2-[(S)-(4-chlorophenyl)(hydroxy)methyl]-6-(methoxycarbonyl)-7-methyl-3H,6H,7H,8H,9H-imidazo[4,5-f]quinolin-3-yl]cyclohexane-1-carboxylic Acid] | 0.1 to 1 |
| COC(=O)N1c2ccc3c(nc(C4(Oc5ccccc5)CC4)n3[C@@H]3CCC[C@@H](C(=O)O)C3)c2CC[C@@H]1C [Example 409] | 0.1 to 1 |
| COC(=O)N1c2ccc3c(nc(C(F)(F)F)n3Cc3ccccc3)c2CC[C@@H]1C [Example 252] | 0.1 to 1 |
| COC(=O)N1c2ccc3c(nc(C(O)c4cc(F)ccc4OC4CC4)n3C3CCCC(C(=O)O)C3)c2CC[C@@H]1C (stereo partly shown) [Example 482] | 0.1 to 1 |
| COC(=O)N1c2ccc3c(nc(CCc4ccccc4)n3[C@H]3CC[C@H](C(N)=O)CC3)c2CC[C@@H]1C [Example 76] | 0.1 to 1 |
| COC(=O)N1c2ccc3c(nc(Nc4cccc(C)c4)n3[C@@H]3CCC[C@@H](C(=O)O)C3)c2CC[C@@H]1C [Example 847] | 0.1 to 1 |
| COC(=O)N1c2ccc3c(nc(C(O)c4cc(F)ccc4OC(C)C)n3C3CCCC(C(=O)O)C3)c2CC[C@@H]1C (stereo partly shown) [Example 445] | 0.1 to 1 |
| COC(=O)N1c2ccc3c(nc(C(C)Cn4cc(Cl)cn4)n3C3CC4(CCNCC4)C3)c2CC[C@@H]1C (stereo partly shown) [Example 746] | 0.1 to 1 |
| COC(=O)N1c2ccc3c(nc(C(Cc4ccccc4)NC(C)=O)n3C3CCCC(C(=O)O)C3)c2CC[C@@H]1C (stereo partly shown) [Example 554] | 0.1 to 1 |
